# Measured values published in PubChem BioAssay AID686979 (National Center for Advancing Translational Sciences (NCATS), 2013).
# Values joined by “and” are separate entries in the source; they are usually repeats but may differ in a detail not shown here. Identical values can stand only once. The list shows a part of the results, in another mix than the full data. Results filed as inconclusive are left out. Entries that show only a call come without a potency. Active and inactive are the calls of the source. Calls follow the shape of the dose curve; as a rule, active = well fitted inhibition curve with a large enough effect; inconclusive = small, poorly fitted or top-dose-only effect; inactive = flat fitted curve, though single readings scatter.
# Test: qHTS for Inhibitors of human tyrosyl-DNA phosphodiesterase 1 (TDP1): qHTS in cells in presence of CPT; also: nearly all actives have a fitted effect of over 55% in size
# Conditions: chicken DT40 Tdp1-/-;hTDP1 cells + 20 nM CPT, ATP luminescence, 48 h; series mostly up to 46.2 µM
# Potency is read from the fitted curve at half-maximal effect.
row,Structure (SMILES),Potency
1,COc1ccc(CC(C)NCC(O)c2ccc(O)c(NC=O)c2)cc1 (stereo not given),inactive
2,N[C@@H](Cc1ccc(N(CCCl)CCCl)cc1)C(=O)O,active: 531 nM and active: 259 nM
3,COc1ccc(C[C@@H](C)NC[C@H](O)c2ccc(O)c(NC=O)c2)cc1,inactive
4,NC(Cc1ccc(N(CCCl)CCCl)cc1)C(=O)O (stereo not given),active: 7.31 µM and active: 282 nM
5,COc1ccc(C[C@H](C)NC[C@@H](O)c2ccc(O)c(NC=O)c2)cc1,inactive
